Source: IntAct's records for PubMed 19632990

B1: Ficolin-2 (Homo sapiens), Q15485 (parent)
chain: MELDRAVGVLGAATLLLSFLGMAWALQAADTCPEVKMVGLEGSDKLTILRGCPGLPGAPGPKGEAGTNGKRGERGPPGPPGKAGPPGPNGAPGEPQPCLTGPRTCKDLLDRGHFLSGWHTIYLPDCRPLTVLCDMDTDGGGWTVFQRRVDGSVDFYRDWATYKQGFGSRLGEFWLGNDNIHALTAQGTSELRVDLVDFEDNYQFAKYRSFKVADEAEKYNLVLGAFVEGSAGDSLTFHNNQSFSTKDQDNDLNTGNCAVMFQGAWWYKNCHVSNLNGRYLRGTHGSFANGINWKSGKGYNYSYKVSEMKVRPA

Variants of: B1
Conditions: with ptx3_human PTX3, P26022

effect of a mutation on the interaction | Variant
decreasing interaction strength | MELDRAVGVLGAATLLLSFLGMAWALQAADTCPEVKMVGLEGSDKLTILRGCPGLPGAPGPKGEAGTNGKRGERGPPGPPGKAGPPGPNGAPGEPQPCLTGPRTCKDLLDRGHFLSGWHTIYLPDCRPLTVLCDMDTDGGGWTVFQRRVDGSVDFYRDWATYKQGFGSRLGEFWLGNDNIHALTAQGTSELRVDLVDFEDNYQFAKYRSFKVADEAEKYNLVLGAFVEGSAGDSLMFHNNQSFSTKDQDNDLNTGNCAVMFQGAWWYKNCHVSNLNGRYLRGTHGSFANGINWKSGKGYNYSYKVSEMKVRPA [T236M]
